These are literature values, as cited in patent US20240010634A1, “PYRIMIDINYL SULFONAMIDES AS INHIBITORS OF ACK1/TNK2 TYROSINE KINASE” (H. LEE MOFFITT CANCER CENTER AND RESEARCH INSTITUTE, INC., priority 2020, published 2024).

By UniProt entry, the sequences of proteins in these tests, tags left out.
UniProt Q07912, whole entry: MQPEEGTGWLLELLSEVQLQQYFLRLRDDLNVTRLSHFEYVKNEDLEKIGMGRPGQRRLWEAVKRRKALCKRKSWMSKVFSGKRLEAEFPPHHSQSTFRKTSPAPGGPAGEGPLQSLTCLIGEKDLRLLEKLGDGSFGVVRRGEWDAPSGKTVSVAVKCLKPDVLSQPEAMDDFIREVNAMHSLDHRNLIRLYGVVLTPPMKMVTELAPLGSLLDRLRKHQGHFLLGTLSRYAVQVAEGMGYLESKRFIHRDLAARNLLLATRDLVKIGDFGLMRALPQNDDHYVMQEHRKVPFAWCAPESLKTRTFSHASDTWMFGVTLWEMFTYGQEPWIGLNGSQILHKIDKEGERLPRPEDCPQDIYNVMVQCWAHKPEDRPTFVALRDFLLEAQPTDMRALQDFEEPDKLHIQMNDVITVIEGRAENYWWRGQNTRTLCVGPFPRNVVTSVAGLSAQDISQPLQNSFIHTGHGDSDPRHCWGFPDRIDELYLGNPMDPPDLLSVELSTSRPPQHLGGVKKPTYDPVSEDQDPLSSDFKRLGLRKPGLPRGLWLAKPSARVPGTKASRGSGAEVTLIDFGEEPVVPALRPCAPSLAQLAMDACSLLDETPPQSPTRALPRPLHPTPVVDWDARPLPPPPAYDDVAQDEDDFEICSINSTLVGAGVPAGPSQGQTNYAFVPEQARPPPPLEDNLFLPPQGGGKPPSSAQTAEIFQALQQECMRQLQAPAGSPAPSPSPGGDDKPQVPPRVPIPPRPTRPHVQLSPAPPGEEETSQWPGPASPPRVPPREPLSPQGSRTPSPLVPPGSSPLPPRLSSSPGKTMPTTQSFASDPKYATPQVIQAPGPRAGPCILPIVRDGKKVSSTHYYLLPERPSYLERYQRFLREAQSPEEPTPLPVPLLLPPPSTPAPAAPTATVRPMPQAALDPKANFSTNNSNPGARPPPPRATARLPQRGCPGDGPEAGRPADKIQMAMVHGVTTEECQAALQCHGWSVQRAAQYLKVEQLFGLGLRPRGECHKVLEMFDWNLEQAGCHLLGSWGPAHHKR

The subject of one data set is ACK1 autophosphorylation. The conditions noted are these: read-out: IC50, inhibition of ACK1 autophosphorylation in intact cells; cited from earlier work.
For another data set, the target named is ACK1 (Homo sapiens (Human), UniProt Q07912). The conditions noted are these: read-out: ACK1 IC50 in vitro; cited from earlier work.

For `COC(C)(C)CCn1nc(Nc2c(C)cccc2C)c2cnc(Nc3ccccc3)nc21`, the values for the IC50 in the data set on ACK1 autophosphorylation and at ACK1 were 0.02 µM and 0.002 µM, respectively.
